Target: T1, holo-E. coli AcpP
T1 chain: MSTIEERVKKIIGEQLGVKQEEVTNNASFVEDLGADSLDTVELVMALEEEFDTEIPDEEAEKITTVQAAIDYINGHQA

B1: acyl carrier protein hydrolase (AcpH) from Pseudomonas fluorescens NCIMB 10586 (protein)
chain: MNYLAHLHLGGQLPAQLLGSLYGDFVKGRLQGQFSPQIEAAIQLHRSIDRFTDSHPLVGEALSRFSQTRRRYAGIVLDVFFDHCLARDWALYADQPLERFTSHVYQVLAAEPALPGRLAQIAPYMAADDWLGSYREFAVMEQVLRGISRRLTQPEELGYAMQELRVLYEPLSEDFRLFYPELQAFALQF
kcat/KM: 1000 M⁻¹ s⁻¹

Source: patent US20150253335
